## Antibody variant affinities, Ab-14 heavy chain, assay B

Binding partner: SARS-CoV-2 spike HR2 peptide, sequence PDVDLGDISGINAS.

Each scFv is VH, a (GGGGS)3 linker, VL, as in the parent Ab-14, and differs from it in the CDRs of the heavy chain only.
VH: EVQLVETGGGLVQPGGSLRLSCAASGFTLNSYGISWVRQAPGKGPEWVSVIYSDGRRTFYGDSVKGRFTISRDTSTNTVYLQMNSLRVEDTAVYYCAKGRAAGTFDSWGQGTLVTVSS
VL: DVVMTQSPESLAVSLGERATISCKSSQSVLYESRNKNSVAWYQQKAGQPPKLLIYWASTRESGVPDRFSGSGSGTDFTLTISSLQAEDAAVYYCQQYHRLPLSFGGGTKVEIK

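The starting antibody came from a phage panning campaign against this peptide. This is the validation round: designs drawn from the data on random variants, tested in the same kind of assay. Their group label is 14H_En_HC (En: ensemble of fine-tuned language models; HC: hill climbing; a sequence that several methods proposed may carry one label only). The scFvs were displayed on barcoded MATa yeast, the peptide on MATalpha yeast. Pairs that bind mate more often; barcode pairs of the diploids are counted by sequencing. Scores were corrected for input abundance and mapped to Kd with protein pairs of known affinity run in the same pool. Each pool was mated in six replicate cultures.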

Each variant is given by its three heavy chain CDRs, as the data file delimits them; those of the parent are GFTLNSYGIS, VIYSDGRRTFYGDSVK, GRAAGTFDS. The read-out is the apparent dissociation constant on a log10 scale (nM): the lower, the stronger. The mean shown is taken over the replicates in which the pair was detected. Where no diploid with the target was found in that replicate, the entry reads "n.d.": below detection, most likely a poor binder, though not proof of it.

| CDR-H1 | CDR-H2 | CDR-H3 | replicates, log10 nM | mean log10 Kd (nM) | empty controls |
|---|---|---|---|---|---|
| GFDLNEYGIS | VIYADGKRTAYADSVK | GEAAGTFDS | -0.90 / 0.60 / 0.52 / -0.85 / -0.20 / -0.82 | -0.28 | 0/18 |
| GFDLNEYGIS | VIYADGRRTAYIDSVK | GEIAGTFDM | -0.56 / 0.12 / -0.26 / -0.59 / -0.75 / -0.38 | -0.41 | 0/18 |
| GFDLNEYGIS | VIYADGSRTFYADSVK | GEEAGTFDQ | 0.63 / -0.33 / 0.25 / 0.26 / -0.41 / -0.03 | 0.06 | 0/18 |
| GFSLDEYGIS | VIYADGRRTFYVDDVK | GNVAGTFDS | -0.41 / -0.59 / -0.67 / -0.51 / -0.35 / -0.51 | -0.51 | 0/18 |
| GFDLNEYGIS | VIYADGVRTFYADSVK | GEIAGTFDQ | -0.69 / -0.22 / -0.38 / -0.90 / -0.56 / -0.42 | -0.53 | 0/18 |
| GFDLNEYGIS | VIYADGKRTFYSDSVK | GTVAGTFDS | -0.43 / -0.55 / -0.51 / -0.86 / -0.49 / -0.32 | -0.53 | 0/18 |
| GFDLNEYGIS | VIYADGRRTFYSDSVK | GNVGGTFDV | -0.28 / -0.20 / -0.03 / -0.42 / 0.01 / -0.05 | -0.16 | 0/18 |
| GFDLNEYGIS | VIYADGVRTFYTDSVK | GQNAGTFDV | -0.84 / -1.20 / -0.80 / -1.13 / -1.22 / -1.06 | -1.04 | 0/18 |
| GFDLNEYGIS | VIYADGMRTAYIDSVK | GEAAGTFDK | 0.18 / 0.22 / 0.20 / 0.86 / 0.17 / 1.05 | 0.44 | 0/18 |
| GFDINEYGIS | VIYADGRRTFYSDSVK | GGNAGTFDS | 0.45 / -0.12 / 0.09 / -0.03 / -0.05 / 0.03 | 0.06 | 0/18 |
| GFDLDEYGIS | VIYADGRRTAYADSVK | GTNAGTFLS | 1.04 / 0.90 / 0.93 / 0.53 / 0.87 / 1.04 | 0.89 | 0/18 |
| GFDLNEYGIS | VIYADGRRTFYSDSVK | GQTAGTFDL | -0.13 / -0.30 / -0.38 / -0.42 / -0.64 / -0.12 | -0.33 | 0/18 |
| GFDLNEYGIS | VIYADGRRTAYIDSVK | GETAGTFDK | 0.76 / 0.21 / -0.35 / -0.11 / -0.38 / -0.15 | -0.01 | 0/18 |
| GFDLEDYGIS | VIYADGRRTQYADSVK | GEAAGTFDV | 0.59 / -0.06 / 0.73 / 0.30 / -0.21 / 0.51 | 0.31 | 0/18 |
| GFDLNEYGIS | VIYADGRRSFYADSVK | GQLAGTFDF | -0.55 / -0.44 / -0.73 / -0.72 / -0.73 / -0.43 | -0.60 | 1/18 (1.90) |
| GFDLNEYGIS | VIYADGRRTFYADSVK | GEFAGTFDE | -0.31 / 0.48 / 0.54 / 0.31 / -0.07 / 0.53 | 0.25 | 0/18 |
| GFDLNEYGIS | VIYADGKRTAYDDSVK | GQVAGTFDS | -0.39 / -0.55 / -0.45 / -0.60 / -0.46 / -0.38 | -0.47 | 0/18 |
| GFDLNEYGIS | VIYADGRRTFYADSVK | GEIAGTFTF | 0.58 / -0.02 / 1.35 / 0.91 / 0.42 / 0.55 | 0.63 | 0/18 |
| GFDLESYGIS | VIYADGSRTAYADSVK | GNVAGTFDM | -0.49 / -0.88 / -0.24 / -0.57 / -0.80 / -0.50 | -0.58 | 0/18 |
| GFDLNEYGIS | VIYADGSRTYYADSVK | GEVAGSFDQ | -0.53 / 0.12 / -0.72 / -0.36 / -0.42 / -0.29 | -0.37 | 0/18 |
| GFDLNEYGIS | VIYADGMRTFYKDSVK | GTNGGTFDV | -0.04 / 0.68 / 0.03 / -0.07 / -0.16 / 0.51 | 0.16 | 0/18 |
| GFDLNEYGIS | VIYADGTRTQYIDSVK | GNVAGTFDS | 0.09 / 0.36 / -0.08 / -0.17 / -0.65 / -0.05 | -0.08 | 0/18 |
| GFDLDEYGIS | VIYADGKRTFYQDSVK | GQAAGTFDQ | -0.01 / -0.32 / -0.23 / 0.27 / -0.09 / -0.20 | -0.10 | 0/18 |
| GFDLNEYGIS | VIYADGRRSFYADSVK | GTLAGTFDV | -0.51 / -0.68 / -0.98 / -0.97 / -0.76 / -0.80 | -0.78 | 0/18 |
| GFDLNEYGIS | VIYADGRRTFYADSVK | GQNAGTFDT | -0.53 / 0.08 / -0.19 / -0.55 / -0.46 / -0.47 | -0.35 | 1/18 (2.31) |
| GFDLEDYGIS | VIYADGRRTFYADSVK | GNVAGTFDI | -0.42 / -0.23 / -0.72 / -0.82 / -0.61 / -0.43 | -0.54 | 0/18 |
| GFDLNEYGIS | VIYADGMRTQYIDSVK | GETAGTFDS | -0.49 / -0.52 / -0.78 / -0.44 / -0.81 / -0.71 | -0.62 | 0/18 |
| GFSLDEYGIS | VIYADGRRTFYADDVK | GNVAGTFDS | -0.09 / -0.21 / -0.41 / -0.54 / -0.45 / -0.41 | -0.35 | 1/18 (0.91) |
| GFDLNEYGIS | VIYADGRRTQYIDSVK | GEQAGTFDV | -0.62 / -0.86 / -0.57 / -0.99 / -1.14 / -0.58 | -0.79 | 0/18 |
| GFDLNEYGIS | VIYADGIRTFYADSVK | GNIAGTFDV | -0.51 / -0.38 / -0.74 / -0.64 / -0.45 / -0.29 | -0.50 | 1/18 (4.04) |
| GFDLDEYGIS | VIYADGRRTFYSDSVK | GETAGTFDV | -0.40 / -0.56 / -0.51 / -0.63 / -0.31 / -0.38 | -0.47 | 0/18 |
| GFDLNDYGIS | VIYADGRRTFYADSVK | GEAAGTFDL | 1.56 / 1.63 / n.d. / 1.00 / 1.00 / 1.49 | 1.33 | 0/18 |
| GFDLNEYGIS | VIYADGMRTFYVDSVK | GETAGTFDS | -0.28 / -0.05 / -0.13 / -0.33 / -0.20 / 0.00 | -0.17 | 0/18 |
| GFNLNEYGIS | VIYADGMRTFYTDSVK | GETAGTFDL | -0.64 / -0.25 / -0.22 / -0.73 / -0.17 / -0.57 | -0.43 | 0/18 |
| GFDLSEYGIS | VIYADGRRTFYSDSVK | GEVAGTFDV | -0.36 / -0.74 / -0.65 / -0.73 / -0.77 / -0.72 | -0.66 | 0/18 |
| GFDLNEYGIS | VIYADGRRTQYIDSVK | GETAGTFDM | 0.12 / -0.07 / 0.53 / 0.18 / -0.18 / 0.12 | 0.12 | 0/18 |
| GFDLDEYGIS | VIYADGRRTFYADKVK | GENAGTFDI | 0.76 / 0.02 / -0.22 / -0.47 / 0.03 / -0.13 | 0.00 | 0/18 |
| GFNLNEYGIS | VIYADGRRTFYADSVK | GETAGTFDF | -0.12 / -0.42 / -0.41 / -0.42 / -0.45 / -0.32 | -0.36 | 1/18 (1.69) |
| GFDLESYGIS | VIYADGRRTAYSDSVK | GENAGTFDI | -0.10 / 0.08 / -0.10 / 0.09 / -0.53 / -0.49 | -0.17 | 0/18 |
| GFDLNEYGIS | VIYADGLRTFYTDSVK | GESAGTFDV | -0.31 / -0.79 / -0.87 / -0.84 / -1.29 / -0.68 | -0.79 | 0/18 |
| GFDLNEYGIS | VIYADGRRTFYADSVK | GETAGTFLS | -0.57 / -0.74 / -0.81 / -0.74 / -0.87 / -0.86 | -0.77 | 0/18 |
| GFDLNEYGIS | VIYADGRRTFYSDSVK | GEIAGTFDK | 0.61 / 0.08 / 0.96 / 0.49 / -0.50 / 0.99 | 0.44 | 0/18 |
| GFDLNEYGIS | VIYADGRRTAYIDSVK | GEAAGTFDV | 1.07 / 1.14 / 0.30 / 0.40 / 0.43 / 0.17 | 0.58 | 0/18 |
| GFDLNEYGIS | VIYADGRRTFYSDSVK | GEAAGTFDF | -1.21 / -0.48 / -1.24 / -1.20 / -0.80 / -0.86 | -0.96 | 0/18 |
| GFDLNEYGIS | VIYADGSRTFYADSVK | GEEAGSFDQ | 1.11 / 1.21 / 1.50 / 1.11 / 1.27 / 2.05 | 1.38 | 3/18 (2.40) |

Repeated from above, the 6 best binders with a signal in all replicates:

{"CDR-H1": "GFDLNEYGIS", "CDR-H2": "VIYADGVRTFYTDSVK", "CDR-H3": "GQNAGTFDV", "replicates, log10 nM": "-0.84 / -1.20 / -0.80 / -1.13 / -1.22 / -1.06", "mean log10 Kd (nM)": "-1.04", "empty controls": "0/18"}
{"CDR-H1": "GFDLNEYGIS", "CDR-H2": "VIYADGRRTFYSDSVK", "CDR-H3": "GEAAGTFDF", "replicates, log10 nM": "-1.21 / -0.48 / -1.24 / -1.20 / -0.80 / -0.86", "mean log10 Kd (nM)": "-0.96", "empty controls": "0/18"}
{"CDR-H1": "GFDLNEYGIS", "CDR-H2": "VIYADGLRTFYTDSVK", "CDR-H3": "GESAGTFDV", "replicates, log10 nM": "-0.31 / -0.79 / -0.87 / -0.84 / -1.29 / -0.68", "mean log10 Kd (nM)": "-0.79", "empty controls": "0/18"}
{"CDR-H1": "GFDLNEYGIS", "CDR-H2": "VIYADGRRTQYIDSVK", "CDR-H3": "GEQAGTFDV", "replicates, log10 nM": "-0.62 / -0.86 / -0.57 / -0.99 / -1.14 / -0.58", "mean log10 Kd (nM)": "-0.79", "empty controls": "0/18"}
{"CDR-H1": "GFDLNEYGIS", "CDR-H2": "VIYADGRRSFYADSVK", "CDR-H3": "GTLAGTFDV", "replicates, log10 nM": "-0.51 / -0.68 / -0.98 / -0.97 / -0.76 / -0.80", "mean log10 Kd (nM)": "-0.78", "empty controls": "0/18"}
{"CDR-H1": "GFDLNEYGIS", "CDR-H2": "VIYADGRRTFYADSVK", "CDR-H3": "GETAGTFLS", "replicates, log10 nM": "-0.57 / -0.74 / -0.81 / -0.74 / -0.87 / -0.86", "mean log10 Kd (nM)": "-0.77", "empty controls": "0/18"}

Nonspecific signal, from three strains lacking the peptide, appeared in 1% of pairings of all heavy chain designs, centred on 2.08 (5% of these signals below 0.84); values are not corrected for it. The control count says in how many pairings with the empty strains this scFv gave a signal, with their mean in brackets. The range of this assay differs from that of the first round, and the authors advise against merging the two. The authors averaged sequences with at least three values out of six and counted those with two or fewer as poor binders.

Reference: Li et al. 2023, doi:10.1038/s41467-023-39022-2. File: FLAb, binding data.